# Tested on: human primary HSCs
# Test: qRT-PCR of HSC activation indexes (α-SMA and PDGFRβ mRNA) after SYK inhibitor treatment
# Format: cell-based
# Details: GS-9973 1 μM, 48 hours, two strains of human primary HSCs
compound,measurement,value
"c1cn2cc(-c3ccc4cn[nH]c4c3)nc(Nc3ccc(N4CCOCC4)cc3)c2n1 [GS-9973, Entospletinib]",mRNA level of activation marker PDGFRβ,significantly reduce
same,mRNA level of activation marker α-SMA,significantly reduce
